These compounds were tested against human BACE1 (Homo sapiens, UniProt P56817) (assay: Fluorescent kinetic assay: Evaluation of BACE-1 Binding Affinity of Test Compounds). Settings: read-out: BACE-1 IC50 μM; 10 nM enzyme, 25 μM substrate WABC-6, 50 mM Na-Acetate pH 4.5, room temperature.

Amino acid sequences for entries named in this document (tags omitted). Residues count along the entry.
UniProt P56817, 46-501 limits assumed: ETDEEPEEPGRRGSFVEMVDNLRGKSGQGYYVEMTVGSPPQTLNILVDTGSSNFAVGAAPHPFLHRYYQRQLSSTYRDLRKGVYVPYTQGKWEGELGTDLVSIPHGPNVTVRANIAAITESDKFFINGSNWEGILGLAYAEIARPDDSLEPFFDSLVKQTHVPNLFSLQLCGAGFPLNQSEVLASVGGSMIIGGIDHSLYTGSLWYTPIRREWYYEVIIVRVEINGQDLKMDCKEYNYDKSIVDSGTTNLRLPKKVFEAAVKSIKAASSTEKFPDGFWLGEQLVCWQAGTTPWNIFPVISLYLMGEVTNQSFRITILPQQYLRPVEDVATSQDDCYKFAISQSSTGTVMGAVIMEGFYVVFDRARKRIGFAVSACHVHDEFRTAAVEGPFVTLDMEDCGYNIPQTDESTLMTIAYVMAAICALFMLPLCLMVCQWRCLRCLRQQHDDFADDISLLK

| Compound | IC50 [µM] |
| --- | --- |
| CCCOc1cccc(C2(c3ccsc3)N=C(N)N(C)C2=O)c1 (stereo not shown) | 0.11 to 1 |
| Cc1ccc(C2(c3cccc(-c4cncnc4)c3)N=C(N)N(C)C2=O)s1 (stereo not shown) | 0.11 to 1 |
| CCCC(=O)c1cc(C2(c3cccc(-c4cccnc4F)c3)N=C(N)N(C)C2=O)cn1CC (stereo not shown) | 0.01 to 0.1 |
| CN1C(=O)C(c2cccc(-c3cccnc3)c2)(c2cccs2)N=C1N (stereo not shown) | 0.01 to 0.1 |
| CN1C(=O)C(c2ccsc2)(c2cccc(-c3cncnc3)c2)N=C1N (stereo not shown) | 0.01 to 0.1 |
| CN1C(=O)C(c2ccsc2)(c2cccc(-c3cccc(C#N)c3)c2)N=C1N (stereo not shown) | 0.01 to 0.1 |
| CN1C(=O)C(c2cccc(-c3cccnc3F)c2)(c2ccn(CC(F)(F)F)c2)N=C1N (stereo not shown) | 0.11 to 1 |
| CN1C(=O)C(c2ccsc2)(c2cccc(-c3ccc(F)nc3)c2)N=C1N (stereo not shown) | 0.11 to 1 |
| CN1C(=O)C(c2cccc(-c3cc(F)ccc3F)c2)(c2cccs2)N=C1N (stereo not shown) | 0.11 to 1 |
| Cc1ccc(C2(c3cccc(-c4cccnc4)c3)N=C(N)N(C)C2=O)s1 (stereo not shown) | 0.11 to 1 |
| CCC(=O)c1[nH]ccc1C1(c2ccc(OC(F)F)cc2)N=C(N)N(C)C1=O (stereo not shown) | > 1 |
| CCn1ccc(C2(c3cccc(-c4cccnc4F)c3)N=C(N)N(C)C2=O)c1 (stereo not shown) | 0.11 to 1 |
| CCn1cc(C2(c3cccc(-c4cccnc4F)c3)N=C(N)N(C)C2=O)cc1C(C)=O (stereo not shown) | 0.01 to 0.1 |
| COc1ccc(OC)c(-c2cccc(C3(c4ccsc4)N=C(N)N(C)C3=O)c2)c1 (stereo not shown) | 0.01 to 0.1 |
| CN1C(=O)C(c2ccsc2)(c2cccc(-c3cc(F)ccc3F)c2)N=C1N (stereo not shown) | 0.11 to 1 |
| CN1C(=O)C(c2ccsc2)(c2cccc(-c3cc(F)cc(F)c3)c2)N=C1N (stereo not shown) | 0.11 to 1 |
| CN1C(=O)C(c2ccsc2)(c2cccc(-c3cccnc3)c2)N=C1N (stereo not shown) | 0.01 to 0.1 |
| CN1C(=O)C(c2ccsc2)(c2cccc(-c3cccc(F)c3F)c2)N=C1N (stereo not shown) | 0.11 to 1 |
| CN1C(=O)C(c2ccsc2)(c2cccc(-c3cccc(F)c3)c2)N=C1N (stereo not shown) | 0.11 to 1 |

— US7705030B2, “Amino-5-(5-membered)hetero-arylimidazolone compounds and the use thereof for β-secretase modulation” (Wyeth LLC, priority 2005, dated 2010)
